Test results taken from ChEMBL document CHEMBL1137158, “Rational drug design and synthesis of a selective opioid receptor antagonist on the basis of the accessory site concept” (2004).

Columns and labels:
Mus musculus [1] = organism: Mus musculus; assay: Effect (1 ug) on antinociception induced by U-50,488H(50 ug) in mouse tail flick test upon i.c.v. treatment; Vehicle value = 48+/-10%
Mus musculus [2] = organism: Mus musculus; assay: Effect (1 ug) on antinociception induced by DAMGO(20 ng) in mouse tail flick test upon i.c.v. treatment; Vehicle value = 71+/-10%
Mus musculus [3] = organism: Mus musculus; assay: Effect (1 ug) on antinociception induced by DPDPE(10 ug) in mouse tail flick test upon i.c.v. treatment; Vehicle value = 59+/-11%

O=C1[C@H]2C[C@@]34C=C[C@]2(OCN1CCc1ccccc1)[C@@H]1Oc2cc(O)cc5c2[C@@]13CCN(CC1CC1)[C@@H]4C5
Activity (Mus musculus [1]): 35%
Activity (Mus musculus [2]): 59%
Activity (Mus musculus [3]): 68%
